Where two headings read alike, the source gives them in different places.

Chains of the proteins cited; added tags and fusions are not shown.
UniProt P20309, whole entry: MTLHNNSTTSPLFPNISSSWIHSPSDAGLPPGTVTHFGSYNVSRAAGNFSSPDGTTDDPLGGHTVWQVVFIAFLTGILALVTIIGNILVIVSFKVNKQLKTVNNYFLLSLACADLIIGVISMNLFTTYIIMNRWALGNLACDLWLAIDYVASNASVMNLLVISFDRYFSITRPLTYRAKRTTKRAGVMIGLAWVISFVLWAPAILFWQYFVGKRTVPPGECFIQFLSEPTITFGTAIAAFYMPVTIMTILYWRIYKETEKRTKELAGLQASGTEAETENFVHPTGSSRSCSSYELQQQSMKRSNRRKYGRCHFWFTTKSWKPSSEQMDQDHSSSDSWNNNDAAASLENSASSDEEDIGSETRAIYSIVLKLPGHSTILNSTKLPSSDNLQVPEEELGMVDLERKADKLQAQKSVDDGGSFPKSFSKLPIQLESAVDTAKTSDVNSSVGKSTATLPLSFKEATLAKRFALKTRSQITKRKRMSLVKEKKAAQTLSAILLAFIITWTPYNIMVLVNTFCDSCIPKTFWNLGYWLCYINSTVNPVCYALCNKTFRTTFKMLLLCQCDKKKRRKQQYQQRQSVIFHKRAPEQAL

For the assay, the target named is hM3 muscarinic receptor (Homo sapiens (Human), UniProt P20309). Description: Radioligand binding assay for muscarinic receptors ([3H]-NMS displacement, CHO cell membranes). How it is done: The cells were grown in a 5% CO2, 37° C. incubator and lifted with 2 mM EDTA in dPBS. Cells were collected by 5 minute centrifugation at 650×g, and cell pellets were either stored frozen at −80° C. or membranes were prepared immediately for use. For membrane preparation, cell pellets were resuspended in lysis buffer and homogenized with a Polytron PT-2100 tissue disrupter (Kinematica AG; 20 seconds×2 bursts). Crude membranes were centrifuged at 40,000×g for 15 minutes at 4° C. The membrane pellet was then resuspended with re-suspension buffer and homogenized again with the Polytron tissue disrupter. The protein concentration of the membrane suspension was determined by the method described in Lowry et al., 1951, […], 193, 265. All membranes were stored frozen in aliquots at −80° C. or used immediately. […] The membranes were briefly homogenized using a Polytron tissue disruptor (10 seconds) prior to assay plate addition. […] Filter plates were rinsed three times with wash buffer (10 mM HEPES) to remove unbound radioactivity. […] The plates were then counted in a PerkinElmer Topcount liquid scintillation counter (PerkinElmer, Inc.). Binding data were analyzed by nonlinear regression analysis with the GraphPad Prism Software package (GraphPad Software, Inc., San Diego, Calif.) using the one-site competition model. […]

The Ki is a measure of affinity in units of concentration, obtained from inhibition or displacement. High values mean weaker binding, low ones tighter binding. For `CN(C(=O)CCN1CCC(OC(=O)Nc2ccccc2-c2ccccc2)CC1)c1ccc(CNC(=O)CCc2cccc(CNC[C@H](O)c3ccc(O)c4[nH]c(=O)ccc34)c2)cc1` [Compound I-96], the Ki (hM3 Muscarinic Receptor Binding, data rounded to nearest 0.1 nM) is 0.1 nM.
`CN(C(=O)CCN1CCC(OC(=O)Nc2ccccc2-c2ccccc2)CC1)c1cccc(CC(=O)Nc2cccc(CCNC[C@H](O)c3ccc(O)c4[nH]c(=O)ccc34)c2)c1` [Compound I-62] yielded a Ki of 0.1 nM. That is a sub-nanomolar value.

These data come from patent publication US8551978B2 (Theravance, Inc., priority 2009, dated 2013).
